Measured values: patent publication US20060258748A1 (Chevron U.S.A. Inc., priority 2005, published 2006)
Structures can show the parent of a compound that is named as a salt.

Target: NMDA receptor
Experiment: [3H]MK-801 binding assay, NMDA receptors in guinea pig brain membranes
Details: [3H]MK-801 1 nM, read-out: Ki at the NMDA site (standard compounds)
Procedure: Hartley guinea pigs were sacrificed, and their brains were quickly removed and weighed. The brains then were homogenized in 50 mM Tris HCl buffer, pH 7.7, using a Polytron homogenizer. The homogenate was centrifuged at 40,000×g for 15 min, rehomogenized, and centrifuged again. The final pellet was resuspended in Tris-HCl, pH 7.7, at a final concentration of 6.67 mg original wet weight of tissue/ml. […] The samples were then filtered through glass fiber filters on a Tomtec cell harvester. The filters were washed 3 times with 3 ml of cold buffer. Filters were dried overnight and counted next day on a Wallac Betaplate Reader.
The binding experiments were conducted as follows. […] For each compound, graphs were prepared containing individual competition curves obtained for that compound. IC50 values and Hill coefficients were calculated using the program Prism. Ki values were calculated using the Chang Prusoff transformation: Ki═IC50/(1+L/Kd)
where L is radioligand concentration and Kd is the binding affinity of the radioligand, as determined previously by saturation analysis. […] In each experiment, one standard compound was simultaneously run on each 96 well plate.

## NC12CC3CC(CC(C3)C1)C2 [Amantadine, 1-aminoadamantane hydrochloride, reference compound]
  Ki: 0.0161 µM
